Reference: patent publication US20180333502A1 (published 2018)

T1: human GITR on cells (activated human T cells; 3A9-hGITR cells) (human, UniProt Q9Y5U5 26-241)
T1 sequence (looked up): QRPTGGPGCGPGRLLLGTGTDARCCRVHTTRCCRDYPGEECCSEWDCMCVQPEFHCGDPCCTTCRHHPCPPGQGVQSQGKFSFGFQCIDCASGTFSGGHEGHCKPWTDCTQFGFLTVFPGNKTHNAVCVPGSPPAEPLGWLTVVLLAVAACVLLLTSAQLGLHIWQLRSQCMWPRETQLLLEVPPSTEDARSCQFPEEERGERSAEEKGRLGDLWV

B1: anti-GITR-IgG2-IgG1 (antibody)
heavy: QVQLVESGGGVVQPGRSLRLSCAASGFTFSSYGMHWVRQAPGKGLEWVAVIWYEGSNKYYADSVKGRFTISRDNSKNTLYLQMNSLRAEDTAVYYCARGGSMVRGDYYYGMDVWGQGTTVTVSSASTKGPSVFPLAPCSRSTSESTAALGCLVKDYFPEPVTVSWNSGALTSGVHTFPAVLQSSGLYSLSSVVTVPSSNFGTQTYTCNVDHKPSNTKVDKTVERKCCVE[human IgG1 Fc not written out]
light: AIQLTQSPSSLSASVGDRVTITCRASQGISSALAWYQQKPGKAPKLLIYDASSLESGVPSRFSGSGSGTDFTLTISSLQPEDFATYYCQQFNSYPYTFGQGTKLEIKRTVAAPSVFIFPPSDEQLKSGTASVVCLLNNFYPREAKVQWKVDNALQSGNSQESVTEQDSKDSTYSLSSTLTLSKADYEKHKVYACEVTHQGLSSPVTKSFNRGEC
B2: anti-GITR-IgG1 (antibody)
heavy: QVQLVESGGGVVQPGRSLRLSCAASGFTFSSYGMHWVRQAPGKGLEWVAVIWYEGSNKYYADSVKGRFTISRDNSKNTLYLQMNSLRAEDTAVYYCARGGSMVRGDYYYGMDVWGQGTTVTVSSASTKGPSVFPLAPSSKSTSGGTAALGCLVKDYFPEPVTVSWNSGALTSGVHTFPAVLQSSGLYSLSSVVTVPSSSLGTQTYICNVNHKPSNTKVDKKV[human IgG1 Fc not written out]
light: B1 light

Target: T1, human GITR on cells (activated human T …)
Experiment: cell-based or functional assay

Row | Binder | Emax (%), phospho-p65 NFkB signaling, CD4+ T cells | Emax (%), phospho-p65 NFkB signaling, CD8+ T cells
1 | B1 | 100 % of GITR.6.G2.G1f | 92 % of GITR.6.G2.G1f
2 | B2 | 10.8 % of GITR.6.G2.G1f | 27 % of GITR.6.G2.G1f
